Test results as given in PubChem BioAssay (EPA / NIEHS).
Only a part is listed here, and it is no random draw. Inconclusive results are not listed. The source made the active and inactive calls. How the source made its calls, unless noted: active means hit-call score of the fitted dose curve at least 0.9, where 1 is the maximum; inconclusive means response in the unintended direction; inactive means score below 0.9.

Chains of the proteins cited; added tags and fusions are not shown.
UniProt P55055, whole entry: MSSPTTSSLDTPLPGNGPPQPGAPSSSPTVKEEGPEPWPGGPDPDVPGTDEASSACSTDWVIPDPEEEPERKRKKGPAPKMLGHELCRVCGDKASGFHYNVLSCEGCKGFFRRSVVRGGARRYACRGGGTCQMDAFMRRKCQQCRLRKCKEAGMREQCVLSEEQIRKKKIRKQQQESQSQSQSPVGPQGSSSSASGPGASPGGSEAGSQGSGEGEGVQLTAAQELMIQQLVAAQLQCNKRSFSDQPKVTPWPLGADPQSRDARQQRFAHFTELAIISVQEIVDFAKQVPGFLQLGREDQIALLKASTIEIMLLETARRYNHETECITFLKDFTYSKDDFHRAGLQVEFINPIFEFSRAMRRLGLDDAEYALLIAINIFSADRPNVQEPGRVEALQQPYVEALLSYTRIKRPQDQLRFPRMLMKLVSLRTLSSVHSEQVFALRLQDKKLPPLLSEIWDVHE
UniProt P41235, whole entry: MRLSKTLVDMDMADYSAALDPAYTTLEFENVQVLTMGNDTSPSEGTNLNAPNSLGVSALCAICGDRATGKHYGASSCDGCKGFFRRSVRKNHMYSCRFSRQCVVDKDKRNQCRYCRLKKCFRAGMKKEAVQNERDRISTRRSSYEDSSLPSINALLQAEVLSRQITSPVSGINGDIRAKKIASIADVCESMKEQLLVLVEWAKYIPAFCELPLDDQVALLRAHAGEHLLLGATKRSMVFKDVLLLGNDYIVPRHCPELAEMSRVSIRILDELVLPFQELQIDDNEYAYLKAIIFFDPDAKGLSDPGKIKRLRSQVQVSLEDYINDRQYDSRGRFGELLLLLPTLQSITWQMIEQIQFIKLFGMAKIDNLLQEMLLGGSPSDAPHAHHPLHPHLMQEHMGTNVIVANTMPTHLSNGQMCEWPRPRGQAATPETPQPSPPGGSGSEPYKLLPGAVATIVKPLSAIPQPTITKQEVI
UniProt P43354, whole entry: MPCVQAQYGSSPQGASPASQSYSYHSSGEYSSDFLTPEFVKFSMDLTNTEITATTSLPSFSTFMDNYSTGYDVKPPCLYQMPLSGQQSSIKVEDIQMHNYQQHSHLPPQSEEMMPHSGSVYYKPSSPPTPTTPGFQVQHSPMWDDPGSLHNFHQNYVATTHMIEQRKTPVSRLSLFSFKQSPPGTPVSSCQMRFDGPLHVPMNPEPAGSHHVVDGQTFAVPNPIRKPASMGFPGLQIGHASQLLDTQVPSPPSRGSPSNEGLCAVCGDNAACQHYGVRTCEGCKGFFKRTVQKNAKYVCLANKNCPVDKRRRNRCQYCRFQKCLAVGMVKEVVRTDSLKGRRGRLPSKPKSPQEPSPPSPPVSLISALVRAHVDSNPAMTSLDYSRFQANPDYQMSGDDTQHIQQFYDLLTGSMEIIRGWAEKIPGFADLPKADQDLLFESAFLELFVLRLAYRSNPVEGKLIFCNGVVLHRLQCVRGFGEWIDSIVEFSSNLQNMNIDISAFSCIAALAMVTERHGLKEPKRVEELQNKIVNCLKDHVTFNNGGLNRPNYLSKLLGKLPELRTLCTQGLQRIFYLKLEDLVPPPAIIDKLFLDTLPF
UniProt Q16656, whole entry: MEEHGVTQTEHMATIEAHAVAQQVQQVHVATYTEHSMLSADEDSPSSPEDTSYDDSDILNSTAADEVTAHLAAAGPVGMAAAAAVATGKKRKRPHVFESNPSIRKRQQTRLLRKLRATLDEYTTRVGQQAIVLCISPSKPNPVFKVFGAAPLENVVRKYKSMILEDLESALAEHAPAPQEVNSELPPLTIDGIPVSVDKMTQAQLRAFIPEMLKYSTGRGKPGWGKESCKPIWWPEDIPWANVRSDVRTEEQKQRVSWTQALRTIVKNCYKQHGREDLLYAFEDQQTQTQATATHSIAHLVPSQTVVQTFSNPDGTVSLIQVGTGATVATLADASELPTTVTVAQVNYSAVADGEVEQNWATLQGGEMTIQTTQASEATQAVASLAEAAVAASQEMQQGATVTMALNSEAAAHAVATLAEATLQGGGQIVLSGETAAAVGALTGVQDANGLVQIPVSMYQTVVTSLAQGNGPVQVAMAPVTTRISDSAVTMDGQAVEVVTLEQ

Target: Oxysterols receptor LXR-beta (Homo sapiens) (UniProt P55055)
Assay: ATG_LXRb_TRANS: Attagene TRANS-FACTORIAL HepG2 Assay for human Liver X Receptor beta (LXRb) (AID 2282981)
Settings: HepG2 Attagene TRANS GAL4-LXRb reporter, mRNA
Procedure, shortened: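 Gain-of-signal mRNA reporter endpoint, DMSO as negative control. Transiently transfected HepG2 cells carrying the NR-Gal4 chimera and GAL4-UAS reporter units were treated 24 h; transcripts quantified by RT-PCR and capillary electrophoresis fluorescence.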
In the case of `Cc1cccc([N+](=O)[O-])c1[N+](=O)[O-]`, the outcome is reported as “inactive”. In the case of `CC(C)N(CCO)C(C)C`, the outcome is reported as “inactive”. In the case of `O=[N+]([O-])c1cccc([N+](=O)[O-])c1`, the outcome is reported as “inactive”. With `CC(C)OP(C)(=O)OC(C)C` the outcome was “inactive”. In the case of `COP(C)(=O)OC`, the outcome is reported as “inactive”. For `COc1ccc([N+](=O)[O-])cc1[N+](=O)[O-]`, the outcome was “inactive”.

Target: Hepatocyte nuclear factor 4-alpha (Homo sapiens) (UniProt P41235)
Assay: ATG_HNF4a_TRANS: Attagene TRANS-FACTORIAL HepG2 Assay for human Hepatocyte Nuclear Factor 4 alpha (HNF4a) (AID 2282982)
Settings: HepG2 HNF4a transactivation reporter, mRNA readout
Procedure, shortened: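 Gain-of-signal mRNA induction, relative to DMSO vehicle, was read after 24 h compound treatment of HepG2 cells bearing transfected GAL4-UAS reporters. Detection used RT-PCR, 6-FAM primer extension and capillary electrophoresis.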
For `Cc1ccc([N+](=O)[O-])cc1[N+](=O)[O-]`, the outcome was “inactive”. In the case of `O=[N+]([O-])OCC(CO[N+](=O)[O-])(CO[N+](=O)[O-])CO[N+](=O)[O-]`, the outcome is reported as “inactive”. In the case of `N#CBr`, the outcome is reported as “inactive”. For `COP(C)(=O)OC`, the outcome was “inactive”. With `COc1ccc([N+](=O)[O-])cc1[N+](=O)[O-]` the outcome was “inactive”.

Tested on: not listed separately
Assay: ATG_M_06_TRANS: Attagene TRANS-FACTORIAL HepG2 Assay for M06 Transcription Factor (Internal Marker) (AID 2282983)
Settings: HepG2 Attagene TRANS M06 internal marker reporter
Procedure, shortened: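 After a 24 h chemical treatment of transfected HepG2, RNA underwent DNase I treatment, reverse transcription and reporter-specific PCR; labelled, HpaI-digested products were sized by capillary electrophoresis. Signal increase relative to DMSO defined activity.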
With `Cc1cccc([N+](=O)[O-])c1[N+](=O)[O-]` the outcome was “inactive”. With `CC(C)N(CCO)C(C)C` the outcome was “inactive”. In the case of `Cc1ccc([N+](=O)[O-])c([N+](=O)[O-])c1`, the outcome is reported as “inactive”. For `Cc1ccc([N+](=O)[O-])cc1[N+](=O)[O-]`, the outcome was “inactive”. In the case of `N#CBr`, the outcome is reported as “inactive”. With `COP(C)(=O)OC` the outcome was “inactive”. In the case of `Cc1c([N+](=O)[O-])cccc1[N+](=O)[O-]`, the outcome is reported as “inactive”.

Tested on: not listed separately
Assay: ATG_M_32_TRANS: Attagene TRANS-FACTORIAL HepG2 Assay for M32 Transcription Factor (Internal Marker) (AID 2282984)
Settings: HepG2 Attagene TRANS M32 internal marker reporter
Experimental: ATG_TRANS is a cell-based, multiplexed-readout assay that uses HepG2, a human liver cell line, with measurements taken at 24 hours after chemical dosing in a 24-well plate.ATG_M_32_TRANS is one of 30 assay component(s) measured or calculated from the ATG_TRANS assay. It is designed to make measurements of mRNA induction, a form of inducible reporter, as detected with fluorescence intensity signals by Reverse transcription polymerase chain reaction (RT-PCR) and Capillary electrophoresis technology.Data from the assay component ATG_M_32_TRANS was analyzed into 1 assay endpoint. This assay endpoint, ATG_M_32_TRANS, was analyzed in the positive analysis fitting direction relative to DMSO as the negative control and baseline of activity. Using a type of inducible reporter, measures of mRNA for gain-of-signal activity can be used to understand the background control at the transcription factor-level as they relate to the gene . Furthermore, this assay endpoint can be referred to as a secondary readout, because this assay has produced multiple assay endpoints where this one serves a background control function. To generalize the intended target to other relatable targets, this assay endpoint is annotated to the background measurement intended target family, where the subfamily is internal marker.
(§1) Human liver HepG2 cells are transiently transfected with multiple reporter transcription units (MRTUs) in 6-well plates using FuGene 6 reagent (Roche; 3 ml FuGene/1 mg DNA). The MRTU constructs are regulated by a cis-regulating element (promoter). […] A major difference between the CIS and TRANS system is that in CIS activities of endogenous TFs are measured, whereas the TRANS assay evaluates changes in activities of exogenous, chimeric NR-Gal4 proteins. […] At the end of 24 hour incubation, total RNA was isolated using TriZol reagent (Invitrogen). The isolated RNA is then reverse-transcribed using oligo(dT) primer and Mo-MLV reverse transcriptase (Invitrogen) with DNAse I (Ambion) treatment for 30 min. The one-tenth of the produced cDNA was amplified by PCR using Taq DNA polymerase (Invitrogen) and two reporter sequence-specific primers. The PCR products were fluorescently labeled by primer extension with 6-arboxyfluorescein (6-FAM) 5'-labeled reporter sequence-specific primer (2 min at 95 C, 20 s at 68 C and 10 min at 72 C) and these products were digested with 5U of HpaI (New England Biolabs) for 2h at 37 C. The fragments were purified using Qiaquick PCR columns (Qiagen), analyzed on an ABI 3130xL genetic analyzer (Applied Biosystems) with peak positions identified by using a set of X-rhodamine (ROX)-labeled MapMarker1000 molecular weight standards (BioVentures). The raw capillary electrophoresis data was processed using Attagraph software (Attagene).
For `CN(C)CCCl`, the outcome was “inactive”. In the case of `Cc1cccc([N+](=O)[O-])c1[N+](=O)[O-]`, the outcome is reported as “inactive”. With `CC(C)N(CCO)C(C)C` the outcome was “inactive”. For `Cc1ccc([N+](=O)[O-])c([N+](=O)[O-])c1`, the outcome was “inactive”. With `O=[N+]([O-])OCC(CO[N+](=O)[O-])(CO[N+](=O)[O-])CO[N+](=O)[O-]` the outcome was “inactive”. With `CC(C)OP(C)(=O)OC(C)C` the outcome was “inactive”. With `COP(C)(=O)OC` the outcome was “inactive”. In the case of `COc1ccc([N+](=O)[O-])cc1[N+](=O)[O-]`, the outcome is reported as “inactive”.

Target: Nuclear receptor subfamily 4 group A member 2 (Homo sapiens) (UniProt P43354)
Assay: ATG_NURR1_TRANS: Attagene TRANS-FACTORIAL HepG2 Assay for human Nuclear Receptor Related Protein 1 (NURR1) (AID 2282985)
Settings: HepG2 Attagene TRANS reporter, mRNA readout
Experimental: ATG_TRANS is a cell-based, multiplexed-readout assay that uses HepG2, a human liver cell line, with measurements taken at 24 hours after chemical dosing in a 24-well plate.ATG_NURR1_TRANS is one of 30 assay component(s) measured or calculated from the ATG_TRANS assay. It is designed to make measurements of mRNA induction, a form of inducible reporter, as detected with fluorescence intensity signals by Reverse transcription polymerase chain reaction (RT-PCR) and Capillary electrophoresis technology.Data from the assay component ATG_NURR1_TRANS was analyzed into 1 assay endpoint. This assay endpoint, ATG_NURR1_TRANS, was analyzed in the positive analysis fitting direction relative to DMSO as the negative control and baseline of activity. Using a type of inducible reporter, measures of mRNA for gain-of-signal activity can be used to understand the reporter gene at the transcription factor-level as they relate to the gene NR4A2. Furthermore, this assay endpoint can be referred to as a primary readout, because this assay has produced multiple assay endpoints where this one serves a reporter gene function. To generalize the intended target to other relatable targets, this assay endpoint is annotated to the nuclear receptor intended target family, where the subfamily is orphan.
as §1, with “The raw capillary electrophoresis data was processed using Attagraph software (Attagene).” left out
With `Cc1ccc([N+](=O)[O-])c([N+](=O)[O-])c1` the outcome was “inactive”. In the case of `O=[N+]([O-])OCC(CO[N+](=O)[O-])(CO[N+](=O)[O-])CO[N+](=O)[O-]`, the outcome is reported as “inactive”. For `CC(C)OP(C)(=O)OC(C)C`, the outcome was “inactive”. With `COP(C)(=O)OC` the outcome was “inactive”.

Target: Nuclear respiratory factor 1 (Homo sapiens) (UniProt Q16656)
Assay: ATG_NRF1_CIS: Attagene CIS-FACTORIAL HepG2 Assay for human Nuclear Respiratory Factor 1 (NRF1) Orphan Gene (AID 2282987; active means hit-call score of the fitted dose curve at least 0.9, where 1 is the maximum; inactive means score below 0.9)
Settings: HepG2 NRF1 cis-element reporter, Attagene multiplex; actives raise or lower the signal
Procedure, shortened: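 Endogenous factor activity was captured via cis-element-driven reporter transcripts in HepG2 cells. Following 24 h chemical treatment, transcripts were quantified by RT-PCR and capillary electrophoresis.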
With `CN(C)CCCl` the outcome was “inactive”. For `Cc1cccc([N+](=O)[O-])c1[N+](=O)[O-]`, the outcome was “inactive”. For `CC(C)N(CCO)C(C)C`, the outcome was “inactive”. With `Cc1ccc([N+](=O)[O-])c([N+](=O)[O-])c1` the outcome was “inactive”. In the case of `Cc1ccc([N+](=O)[O-])cc1[N+](=O)[O-]`, the outcome is reported as “inactive”. With `O=[N+]([O-])c1cccc([N+](=O)[O-])c1` the outcome was “inactive”. In the case of `O=[N+]([O-])OCC(CO[N+](=O)[O-])(CO[N+](=O)[O-])CO[N+](=O)[O-]`, the outcome is reported as “inactive”. With `CC(C)OP(C)(=O)OC(C)C` the outcome was “inactive”. With `N#CBr` the outcome was “inactive”. For `COP(C)(=O)OC`, the outcome was “inactive”. With `Cc1c([N+](=O)[O-])cccc1[N+](=O)[O-]` the outcome was “inactive”. In the case of `COc1ccc([N+](=O)[O-])cc1[N+](=O)[O-]`, the outcome is reported as “inactive”.
